What was measured:
[1] = biological target: Kappa-type opioid receptor (Cavia porcellus) (UniProt P41144); experiment: Tested for percentage specific binding of compound at 5 nM against [3H]U-69593 on washed kappa-opioid receptor binding site
[2] = biological target: Kappa-type opioid receptor (Cavia porcellus) (UniProt P41144); experiment: Tested for percentage specific binding of compound at 25 nM against [3H]U-69593 on washed kappa-opioid receptor binding site
[3] = biological target: Kappa-type opioid receptor (Cavia porcellus) (UniProt P41144); experiment: Tested for percentage specific binding of compound at 50 nM against [3H]U-69593 on washed kappa-opioid receptor binding site
[4] = biological target: Kappa-type opioid receptor (Cavia porcellus) (UniProt P41144); experiment: Tested for percentage specific binding of compound at 5 nM against [3H]U-69593 on unwashed kappa-opioid receptor binding site
[5] = biological target: Kappa-type opioid receptor (Cavia porcellus) (UniProt P41144); experiment: Tested for percentage specific binding of compound at 25 nM against [3H]U-69593 on unwashed kappa-opioid receptor binding site
[6] = biological target: Kappa-type opioid receptor (Cavia porcellus) (UniProt P41144); experiment: Tested for percentage specific binding of compound at 50 nM against [3H]U-69,593 on unwashed kappa-opioid receptor binding site
[7] = biological target: Kappa-type opioid receptor (Cavia porcellus) (UniProt P41144); experiment: Tested for percentage specific binding of compound at 5 nM against [3H]U-69593 on kappa-opioid receptor binding site protected with 1 uM naloxone
[8] = biological target: Kappa-type opioid receptor (Cavia porcellus) (UniProt P41144); experiment: Tested for percentage specific binding of compound at 50 nM against [3H]U-69593 on kappa-opioid receptor binding site protected with 1 uM naloxone
[9] = biological target: Kappa-type opioid receptor (Cavia porcellus) (UniProt P41144); experiment: Tested for percentage specific binding of compound at 25 nM against [3H]U-69593 on kappa-opioid receptor binding site protected with 1 uM naloxone
[10] = biological target: Kappa-type opioid receptor (Cavia porcellus) (UniProt P41144); experiment: Tested for percentage specific binding of compound at 10 nM against [3H]U-69593 on washed kappa-opioid receptor binding site
[11] = biological target: Kappa-type opioid receptor (Cavia porcellus) (UniProt P41144); experiment: Tested for percentage specific binding of compound at 20 nM against [3H]U-69593 on washed kappa-opioid receptor binding site
[12] = biological target: Kappa-type opioid receptor (Cavia porcellus) (UniProt P41144); experiment: Tested for percentage specific binding of compound at 10 nM against [3H]U-69593 on unwashed kappa-opioid receptor binding site
[13] = biological target: Kappa-type opioid receptor (Cavia porcellus) (UniProt P41144); experiment: Tested for percentage specific binding of compound at 20 nM against [3H]U-69,593 on unwashed kappa-opioid receptor binding site
[14] = biological target: Kappa-type opioid receptor (Cavia porcellus) (UniProt P41144); experiment: Tested for percentage specific binding of compound at 10 nM against [3H]U-69593 on kappa-opioid receptor binding site protected with 1 uM naloxone
[15] = biological target: Kappa-type opioid receptor (Cavia porcellus) (UniProt P41144); experiment: Tested for percentage specific binding of compound at 20 nM against [3H]U-69593 on kappa-opioid receptor binding site protected with 1 uM naloxone
[16] = biological target: Kappa-type opioid receptor (Cavia porcellus) (UniProt P41144); experiment: Tested for percentage specific binding of compound at 2.5 nM against [3H]U-69593 on washed kappa-opioid receptor binding site
[17] = biological target: Kappa-type opioid receptor (Cavia porcellus) (UniProt P41144); experiment: Tested for percentage specific binding of compound at 2.5 nM against [3H]U-69,593 on unwashed kappa-opioid receptor binding site
[18] = biological target: Kappa-type opioid receptor (Cavia porcellus) (UniProt P41144); experiment: Tested for percentage specific binding of compound at 2.5 nM against [3H]U-69593 on kappa-opioid receptor binding site protected with 1 uM naloxone
[19] = biological target: Kappa-type opioid receptor (Cavia porcellus) (UniProt P41144); experiment: Tested for percentage specific binding of compound at 40 nM against [3H]U-69593 on washed kappa-opioid receptor binding site
[20] = biological target: Kappa-type opioid receptor (Cavia porcellus) (UniProt P41144); experiment: Tested for percentage specific binding of compound at 60 nM against [3H]U-69593 on washed kappa-opioid receptor binding site
[21] = biological target: Kappa-type opioid receptor (Cavia porcellus) (UniProt P41144); experiment: Tested for percentage specific binding of compound at 60 nM against [3H]U-69593 on unwashed kappa-opioid receptor binding site
[22] = biological target: Kappa-type opioid receptor (Cavia porcellus) (UniProt P41144); experiment: Tested for percentage specific binding of compound at 40 nM against [3H]U-69,593 on unwashed kappa-opioid receptor binding site
[23] = biological target: Kappa-type opioid receptor (Cavia porcellus) (UniProt P41144); experiment: Tested for percentage specific binding of compound at 40 nM against [3H]U-69593 on kappa-opioid receptor binding site protected with 1 uM naloxone
[24] = biological target: Kappa-type opioid receptor (Cavia porcellus) (UniProt P41144); experiment: Tested for percentage specific binding of compound at 60 nM against [3H]U-69593 on kappa-opioid receptor binding site protected with 1 uM naloxone

The chains behind the UniProt entries cited, without tags or fusion partners. Where a name states a change or a piece, a line headed by the entry shows the natural chain unless it says otherwise.
UniProt P41144: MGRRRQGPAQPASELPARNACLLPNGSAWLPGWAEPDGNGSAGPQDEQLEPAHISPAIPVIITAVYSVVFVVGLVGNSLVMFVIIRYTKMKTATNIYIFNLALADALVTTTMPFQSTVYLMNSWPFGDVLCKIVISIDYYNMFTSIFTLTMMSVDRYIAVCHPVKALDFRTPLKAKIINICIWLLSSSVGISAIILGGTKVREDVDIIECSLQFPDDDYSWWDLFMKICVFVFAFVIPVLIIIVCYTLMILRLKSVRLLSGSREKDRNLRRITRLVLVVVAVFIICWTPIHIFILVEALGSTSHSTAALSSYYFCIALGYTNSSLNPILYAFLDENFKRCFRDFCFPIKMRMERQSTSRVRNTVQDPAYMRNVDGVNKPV

SMILES: CN(C(=O)Cc1ccc(Cl)c(Cl)c1)[C@H](CN1CCCC1)c1ccc(N=C=S)cc1
- Binding [1]: 70%
- Binding [2]: 50%
- Binding [3]: 15%
- Binding [4]: 76%
- Binding [5]: 46%
- Binding [6]: 11%
- Binding [7]: 86%
- Binding [8]: 27%
- Binding [9]: 56%

SMILES: CN(C(=O)Cc1cccc(N=C=S)c1)[C@H](CN1CCCC1)c1ccccc1
- Binding [1]: 62%
- Binding [10]: 45%
- Binding [11]: 38%
- Binding [4]: 51%
- Binding [12]: 43%
- Binding [13]: 24%
- Binding [7]: 79%
- Binding [14]: 61%
- Binding [15]: 50%

SMILES: CN(C(=O)Cc1ccccc1N=C=S)[C@H](CN1CCCC1)c1ccccc1
- Binding [1]: 65%
- Binding [10]: 57%
- Binding [16]: 78%
- Binding [4]: 62%
- Binding [12]: 49%
- Binding [17]: 74%
- Binding [7]: 88%
- Binding [14]: 80%
- Binding [18]: 87%

SMILES: CN(C(=O)Cc1ccccc1)[C@H](CN1CCCC1)c1ccccc1
- Binding [10]: 89%
- Binding [14]: 91%

SMILES: CN(C(=O)Cc1cc(Cl)c(Cl)cc1N=C=S)[C@H](CN1CCCC1)c1ccccc1
- Binding [2]: 21%
- Binding [3]: 12%
- Binding [10]: 46%
- Binding [12]: 54%
- Binding [5]: 20%
- Binding [6]: 11%
- Binding [8]: 34%
- Binding [14]: 79%
- Binding [9]: 37%

SMILES: CN(C(=O)Cc1ccc(N=C=S)cc1)[C@H](CN1CCCC1)c1ccccc1
- Binding [19]: 34%
- Binding [11]: 53%
- Binding [20]: 21%
- Binding [21]: 27%
- Binding [22]: 28%
- Binding [13]: 59%
- Binding [23]: 35%
- Binding [15]: 61%
- Binding [24]: 27%

From ChEMBL document CHEMBL1127447, “Isothiocyanate-substituted kappa-selective opioid receptor ligands derived from N-methyl-N-[(1S)-1-phenyl-2-(1-pyrrolidinyl)ethyl] phenylacetamide” (1994)
